Data on two substances can be found in patent US12084415B2, “Biomolecule-polymer-pharmaceutical agent conjugates for delivering the pharmaceutical agent” (Massachusetts Institute of Technology, priority 2021, dated 2024).

A short description of series [1]: Pharmacokinetics (blood circulation) of Cy5.5 labelled materials in mice. In kind it is in vivo. Here is the method:
The pharmacokinetics of the ABCs, BPD and control ABCs were measured to access the circulation half-life of these materials. In order to monitor these materials in vivo, the brush polymer was labeled by a higher amount of Cy5.5 fluorescent dye. The ABC, BPD and control ABC treatment groups contained the same amount of dye according to the same amount of polymer was injected into mice. The time dependent blood samples were collected and analyzed.
More than 40% of polymers for ABC, BPD and Ctrl ABC was left inside the blood after 72 h. The dye labelled trastuzumab was also studied for the comparison of the PK.

Another series deals with BT-474 cell line. Nature of the series: Cell toxicity (MTT assay), BT-474. Conditions: free antibody as a control. In kind it is cell-based. Here is the method:
(§1) Different cell lines (including SKBR-3, SKOV-3, MCF-10A, HCC-1954, BT-474) were cultured in T75 cell culture flask containing RMPI or Dulbecco's Modified Eagle Medium/Nutrient Mixture F-12 (DMEM/F12) in a humidified S26 incubator with 5% CO2 at 37° C. Culture media was supplemented with 10% fetal bovine serum (FBS), 1% 1-glutamine, and 1% antibiotic-antimycotic (100 units/mL of penicillin, 100 μg/mL of streptomycin, and 0.25 μg/mL of amphotericin B).
(§2) Different cells (including SKBR-3, SKOV-3, MCF-10A, HCC-1954, BT-474) were seeded into 96-well tissue culture plates at a density of 10 000 cells/well/100 μL sample and incubated at 37° C. After 24 h, culture media was replaced and cells were treated with different concentrations of brush polymers in 100 μL media (10 μL protein containing solution with different concentrations+90 μL medium). At the desired time interval, the medium was removed and the cells were cultured by 100 μL 10% MTT (5 mg/mL) in medium solution for another 4 h. Then, the solution was discarded and the remaining crystal was dissolved by 100 μL DMSO. The solution was subjected to absorbance measurement with SpectraMax M5 at 590 nm. Cell death was measured by the MTT assay in triplicate.

The test system of the next series is SKBR-3 cell line. Description: Cell toxicity (MTT assay), SKBR-3. In kind it is cell-based. The note with it: SKBR-3, high HER2 expression; drug conjugated materials. Here is the method:
as §1, §2

The test system of the next series is HCC-1954 cell line. Nature of the series: Cell toxicity (MTT assay), HCC-1954. In kind it is cell-based. The note with it: HCC-1954, low HER2 expression; drug conjugated materials. Here is the method: as §1, §2

With dye labelled trastuzumab, the “fluorescence of the Ab in blood after 72 h injection” value in series [1] is listed as “almost no signal”.

As to trastuzumab, the cell toxicity result with BT-474 cell line, in the series on SKBR-3 cell line and with HCC-1954 cell line was “no toxicity” in each case.
